This note sets out measurements from US20240304840A1 (priority 2023, published 2024).

For series [1] the following is noted: 1 mAh H-cell, 1 M sodium chloride, Selemion AMVN, about 20 days. An excerpt:
An H-cell can be used for the coulombic efficiency tests. […] The electrolyte can be dissolved in about 1 M sodium chloride for electrochemical stability testing. The moles of anolyte and catholyte molecules present can be controlled to achieve the desired capacity of 1 mAh. […] Selemion™ anion exchange membrane (AMVN) can be used for the H-cells.

The conditions of series [2]: HPLC after 107 cycles over 30 days, 1 M KCl.

In the case of “N,N,N,N2,N2-pentamethyl-N2-ferrocenylbutyl-1,3-propanediaminium dichloride [ferrocene-diammonium-Cl2]”, the “crossover in H-cell” value in series [1] was “almost no crossover”. For monosodium glutamate-PDI [MSG-PDI], the “crossover of anolyte into the catholyte solution” value in series [2] is “no crossover”.
